These results are taken from PubChem BioAssay AID2227 (Johns Hopkins Ion Channel Center, 2009).

Chains of the proteins cited; added tags and fusions are not shown.
UniProt Q9QUQ5, whole entry: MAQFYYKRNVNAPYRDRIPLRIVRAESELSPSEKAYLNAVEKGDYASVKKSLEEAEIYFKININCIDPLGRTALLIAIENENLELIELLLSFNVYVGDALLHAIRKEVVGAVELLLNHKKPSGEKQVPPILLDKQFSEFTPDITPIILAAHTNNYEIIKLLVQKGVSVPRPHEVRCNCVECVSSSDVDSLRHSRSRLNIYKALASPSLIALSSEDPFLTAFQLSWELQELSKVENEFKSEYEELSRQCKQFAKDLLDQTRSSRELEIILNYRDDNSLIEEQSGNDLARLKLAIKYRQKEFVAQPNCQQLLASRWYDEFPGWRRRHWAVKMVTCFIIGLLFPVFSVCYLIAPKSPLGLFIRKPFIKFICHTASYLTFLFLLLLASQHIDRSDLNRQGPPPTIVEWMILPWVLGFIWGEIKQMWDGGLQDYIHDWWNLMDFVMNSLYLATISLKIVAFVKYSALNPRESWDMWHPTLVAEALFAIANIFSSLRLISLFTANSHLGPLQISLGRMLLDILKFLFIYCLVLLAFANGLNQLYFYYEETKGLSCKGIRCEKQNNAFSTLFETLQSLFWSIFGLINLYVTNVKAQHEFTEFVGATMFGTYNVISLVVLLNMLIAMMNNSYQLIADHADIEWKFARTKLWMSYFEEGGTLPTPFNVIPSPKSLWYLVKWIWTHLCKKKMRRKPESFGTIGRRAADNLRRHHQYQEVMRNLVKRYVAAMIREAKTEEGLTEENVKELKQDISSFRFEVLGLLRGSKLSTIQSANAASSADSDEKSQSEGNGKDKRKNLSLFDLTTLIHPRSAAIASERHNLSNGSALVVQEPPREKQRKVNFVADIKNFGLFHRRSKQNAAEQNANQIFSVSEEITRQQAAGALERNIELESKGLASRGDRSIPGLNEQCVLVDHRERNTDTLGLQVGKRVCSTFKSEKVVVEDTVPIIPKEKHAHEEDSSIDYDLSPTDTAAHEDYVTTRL

The list shows a part of the results, in another mix than the full data. Activity calls are given as the source filed them.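 The calls were made as follows: active = B-score of calcium response area above 5 SD of library B-scores, with initial fluorescence ratio within 5 SD of library; inactive = the rest.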

The assay has as its target Short transient receptor potential channel 4 (Mus musculus) (UniProt Q9QUQ5). As to the kind of experiment: positive allosteric modulators of TRPC4, primary screen, cell-based, mouse TRPC4beta, HEK293 mu-opioid, Fluo-4 calcium (AID 2227).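 As to B-score: B-score of integrated fluorescence ratio over time as area under calcium response.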 As to conditions: DAMGO EC20, Fluo-4 Ca2+ flux, at 10 µM; hits give high values. Background: A change in cytosolic calcium serves as a functional read-out for many receptors and channels.
As to `COc1ccccc1CNC(=O)COC(=O)C(O)(c1ccccc1)c1ccccc1`, the outcome was inactive.

Consider `CN(C(=O)Cc1ccc(Cl)c(Cl)c1)[C@@H]1CCCC[C@H]1N1CCCC1`, for which the result was inactive.

Take `CC(C)/C=N\N=C(\N)N[N+](=O)[O-]`: the outcome was inactive.

As to `O=[As](O)(c1ccccc1Br)c1ccccc1Br`, the outcome was inactive.

`CC1(CBr)Cn2c(nc3ccccc3c2=O)S1` (stereo not drawn): the result was inactive.

Regarding `O=C(OC1CN2CCC1CC2)c1ccc(Cl)cc1` (stereo not drawn), the result was inactive.

On to `O=[As](O)(O)c1cccnc1`, for which the result was inactive.

Regarding `COc1cc(C(=O)NCC2(N3CCOCC3)CCCCC2)cc(Cl)c1OC(C)C`, the outcome was inactive.

With `COc1ccccc1OP(C)(=O)Nc1cccc(Br)c1` (stereo not drawn), the outcome was inactive.

Turning to `CS(=O)(=O)c1ccc(Cl)c(NC(=O)COC(=O)C(O)(c2ccccc2)c2ccccc2)c1`, the outcome was inactive.

As for `Cc1cccc(OCC(=O)OC2CN3CCC2CC3)c1` (stereo not drawn), the outcome was inactive.

In the case of `O=[As](O)(c1cccc(O)c1)c1cccc(O)c1`, the result was inactive.

On to `Cc1cc(C)cc(OP(C)(=O)Nc2ccc(C)cc2C)c1` (stereo not drawn), for which the result was inactive.

`CCOC(=O)c1ccc(NP(C)(=O)Oc2cc(C)cc(C)c2)cc1` (stereo not drawn): the result was inactive.

Take `Cc1cc(C)cc(OP(C)(=O)Nc2ccccn2)c1` (stereo not drawn): the result was inactive.

`CP(=O)(Nc1cccc(Br)c1)Oc1ccccc1` (stereo not drawn): the outcome was inactive.

On to `Cc1ccc(NCCc2c([N+](=O)[O-])cc([N+](=O)[O-])cc2[N+](=O)[O-])cc1`, for which the outcome was inactive.

In the case of `Nc1cccc2c([As](=O)(O)O)cccc12`, the result was inactive.

Turning to `Cc1ccc(C)c(NP(C)(=O)Oc2ccccc2)c1` (stereo not drawn), the result was inactive.

`CCCOP(=S)(Nc1nc(N)cc(=O)[nH]1)OCCC`: the result was inactive.

As to `CCOP(=O)(Nc1cccc2ccccc12)OCC`, the outcome was inactive.

On to `O=C(O)c1cccc(Nc2c([N+](=O)[O-])cc([N+](=O)[O-])cc2[N+](=O)[O-])c1`, for which the outcome was inactive.

Consider `CCOP1(=S)c2c(C)nn(CCC#N)c2N=C(c2ccccc2F)N1C` (stereo not drawn), for which the result was inactive.

For the molecule `O=P(Nc1nccs1)(Oc1ccccc1)Oc1ccccc1`, the result was inactive.

For `O=P(Nc1nccs1)(c1ccccc1)c1nc2ccccc2s1` (stereo not drawn), the outcome was inactive.

With `CS(=O)(=O)c1cc([N+](=O)[O-])c2no[n+]([O-])c2c1`, the outcome was inactive.

On to `O=C(O)COc1ccc([As](=O)(O)O)cc1[N+](=O)[O-]`, for which the outcome was inactive.

`Nc1ccccc1[As](=O)(O)c1ccccc1`: the outcome was inactive.

Take `NC(=O)Nc1ccc([As](=O)(O)O)cc1`: the result was inactive.

As to `N#CCCN(C(=O)COC(=O)C(O)(c1ccccc1)c1ccccc1)c1ccc(F)cc1`, the outcome was inactive.

Turning to `CN(C(=O)Cc1ccccc1)[C@@H]1CC[C@]2(CCCO2)C[C@H]1N1CCCC1`, the result was inactive.

For the molecule `CCOP1(=S)c2c(C)nn(CCC#N)c2N=C(c2ccc(F)cc2)N1C` (stereo not drawn), the outcome was inactive.

For the molecule `O=[N+]([O-])c1ccc2c(c1)nnn2O`, the outcome was inactive.

With `CN(C)C(=O)c1cc([N+](=O)[O-])cc2c1-c1c(cc([N+](=O)[O-])cc1[N+](=O)[O-])C2=O`, the outcome was inactive.

On to `CC1=NCCc2c1[nH]c1ccccc21.O=[N+]([O-])c1cc([N+](=O)[O-])c(O)c([N+](=O)[O-])c1`, for which the result was inactive.

`CN(C(=O)Cc1ccc(Cl)c(Cl)c1)[C@H]1CC[C@@]2(CCCO2)C[C@@H]1N1CCCC1`: the outcome was inactive.

With `O=[N+]([O-])c1cc([N+](=O)[O-])c(Nc2cccnc2)c([N+](=O)[O-])c1`, the result was inactive.

Take `C[As](=O)(O)c1cccc(C(=O)O)c1`: the outcome was inactive.

`O=[As](O)(c1ccc(O)cc1)c1ccccc1O`: the result was inactive.

As for `Cc1ccc(OP(=O)(Nc2ccc([N+](=O)[O-])cn2)Oc2ccc(C)cc2)cc1`, the result was inactive.

Turning to `CC(C)(C)c1ccc(OP(C)(=O)Nc2ccc(SC(F)(F)F)cc2)cc1` (stereo not drawn), the outcome was inactive.

For the molecule `Cc1cccc(C)c1OP(C)(N)=O` (stereo not drawn), the outcome was inactive.

Take `O=[N+]([O-])c1ccc2c(c1)C=Nc1ccccc1O2`: the result was inactive.

Take `Cc1ccc2nc3c(c(C)c2c1)CC(C(Cl)Cl)S3` (stereo not drawn): the outcome was inactive.

With `CCOC(=O)c1ccc(NP(C)(=O)Oc2ccccc2)cc1` (stereo not drawn), the outcome was inactive.

Consider `ClCCSc1nnc(-c2cccnc2)o1`, for which the outcome was inactive.

For `COc1ccccc1OP(C)(=O)Nc1ccc(C)cc1` (stereo not drawn), the result was inactive.

Take `Cc1ccc(NP(C)(=O)Oc2ccccc2)c(C)c1` (stereo not drawn): the outcome was inactive.

`CC(C)c1ccc(OP(=O)(Nc2ccccn2)Oc2ccccc2F)cc1` (stereo not drawn): the outcome was inactive.

As for `CC(C)NC(=O)NP(=O)(Oc1ccccc1)Oc1ccccc1`, the result was inactive.

For `COc1ccccc1OP(C)(=O)Nc1cc(Cl)ccc1C` (stereo not drawn), the result was inactive.

For `CCN(CC)C(=S)SC(NC=O)C(Cl)(Cl)Cl` (stereo not drawn), the result was inactive.

In the case of `COc1ccc(OP(C)(=O)Nc2cccc(F)c2)cc1` (stereo not drawn), the result was inactive.

`O=[N+]([O-])c1cc([N+](=O)[O-])c(-c2ccn[nH]2)s1`: the outcome was inactive.

Consider `Cc1cc(C)cc(OP(C)(N)=O)c1` (stereo not drawn), for which the outcome was inactive.

Regarding `Cc1c2c(nc3ccccc13)SC(C(Cl)Cl)C2` (stereo not drawn), the result was inactive.

With `O=C(OC1CN2CCC1CC2)C12CC3CC(CC(C3)C1)C2` (stereo not drawn), the outcome was inactive.

As to `Cc1cc(=O)[nH]c(N[N+](=O)[O-])n1`, the outcome was inactive.

On to `CCN(CC)CCCOC(=O)C(O)(c1ccccc1)c1ccccc1`, for which the B-score was active: 18.

Regarding `COc1ccc2nc(NP(=O)(c3ccccc3)c3ccccc3)sc2c1`, the outcome was inactive.

For `COc1cc(I)ccc1[As](=O)(O)O`, the outcome was inactive.

Turning to `COc1ccc(N/C(=N/P(=O)(N2CCOCC2)N2CCOCC2)N2CCOCC2)cc1`, the result was inactive.

Consider `COP1(=S)c2c(C)nn(CCC#N)c2N=C(c2ccc(F)cc2)N1C` (stereo not drawn), for which the result was inactive.

For the molecule `CP(=O)(Nc1ccc(SC(F)(F)F)cc1)Oc1ccc(Cl)cc1` (stereo not drawn), the outcome was inactive.

In the case of `Cc1cccc(C)c1OP(C)(=O)Nc1ccc(SC(F)(F)F)cc1` (stereo not drawn), the outcome was inactive.

Take `CP(=O)(Oc1ccccc1)OC(c1ccccc1)C(F)(F)F` (stereo not drawn): the result was inactive.

For the molecule `CP(=O)(NC(=O)Nc1ccccc1)Oc1ccccc1` (stereo not drawn), the result was inactive.

As for `O=C(COc1ccccc1)OC1CN2CCC1CC2` (stereo not drawn), the outcome was inactive.

Consider `CCc1ccc(OP(C)(=O)N2CCN(c3ccc([N+](=O)[O-])cc3)CC2)cc1` (stereo not drawn), for which the outcome was inactive.

Take `O=C(Nc1ccncc1[N+](=O)[O-])c1ccc([N+](=O)[O-])cc1[N+](=O)[O-]`: the outcome was inactive.

On to `Cc1cc(C)cc(OP(C)(=O)Nc2ccc(SC(F)(F)F)cc2)c1` (stereo not drawn), for which the result was inactive.

`O=C(OC1CN2CCC1CC2)c1cccc([N+](=O)[O-])c1` (stereo not drawn): the outcome was inactive.

As for `CCOP(C)(=S)SCC(=O)NC(C)C(=O)O` (stereo not drawn), the outcome was inactive.

As for `O=[N+]([O-])c1cc([N+](=O)[O-])c(O)c([N+](=O)[O-])c1.c1ccc(Oc2ccncc2)cc1`, the result was inactive.

On to `CCOC(=O)c1ccc(NC(=O)C(C)(CCl)SC)cc1` (stereo not drawn), for which the outcome was inactive.

For `CCOC(=O)c1ccc(NP(C)(=O)Oc2ccc(OC)cc2)cc1` (stereo not drawn), the result was inactive.

For `CCC(C)N(CC(C)C)C(=S)SC(NC(C)=O)C(Cl)(Cl)Cl` (stereo not drawn), the outcome was inactive.

Turning to `CP(=O)(Nc1ccccn1)Oc1ccc(Cl)cc1` (stereo not drawn), the result was inactive.

In the case of `CCOC(=O)Nc1ccc([As](=O)(O)O)c(O)c1`, the outcome was inactive.

`CCCCOc1ccc(C(=O)NCC2(N3CCCCC3)CCCCC2)cc1OC`: the result was inactive.

Turning to `Cc1cc(SC(NC(=O)c2ccccc2)C(Cl)(Cl)Cl)nc(C(C)C)n1` (stereo not drawn), the outcome was inactive.

As to `CP(=S)(Nn1cnnc1)Oc1ccccc1` (stereo not drawn), the outcome was inactive.

For the molecule `CCOC(=O)Nc1cccc([As](=O)(O)O)c1`, the outcome was inactive.

For the molecule `Cc1cc(SC(NC=O)C(Cl)(Cl)Cl)ncn1` (stereo not drawn), the outcome was inactive.

On to `O=P(Nc1ccccn1)(c1cccc2ccccc12)c1cccc2ccccc12`, for which the outcome was inactive.

Regarding `COc1ccccc1OP(C)(=O)Nc1ccccc1` (stereo not drawn), the result was inactive.

For `CP(=O)(Nc1ccccc1Br)Oc1ccccc1` (stereo not drawn), the outcome was inactive.

For the molecule `O=[N+]([O-])c1ccc(Nc2ccc(Oc3ccc([N+](=O)[O-])cc3[N+](=O)[O-])cc2)c([N+](=O)[O-])c1`, the outcome was inactive.
